Laboratory results from ChEMBL document CHEMBL2346572, “Discovery of AZD3514, a small-molecule androgen receptor downregulator for treatment of advanced prostate cancer” (Bioorg Med Chem Lett, 2013).

The chains behind the UniProt entries cited, without tags or fusion partners. Where a name states a change or a piece, a line headed by the entry shows the natural chain unless it says otherwise.
UniProt P10275: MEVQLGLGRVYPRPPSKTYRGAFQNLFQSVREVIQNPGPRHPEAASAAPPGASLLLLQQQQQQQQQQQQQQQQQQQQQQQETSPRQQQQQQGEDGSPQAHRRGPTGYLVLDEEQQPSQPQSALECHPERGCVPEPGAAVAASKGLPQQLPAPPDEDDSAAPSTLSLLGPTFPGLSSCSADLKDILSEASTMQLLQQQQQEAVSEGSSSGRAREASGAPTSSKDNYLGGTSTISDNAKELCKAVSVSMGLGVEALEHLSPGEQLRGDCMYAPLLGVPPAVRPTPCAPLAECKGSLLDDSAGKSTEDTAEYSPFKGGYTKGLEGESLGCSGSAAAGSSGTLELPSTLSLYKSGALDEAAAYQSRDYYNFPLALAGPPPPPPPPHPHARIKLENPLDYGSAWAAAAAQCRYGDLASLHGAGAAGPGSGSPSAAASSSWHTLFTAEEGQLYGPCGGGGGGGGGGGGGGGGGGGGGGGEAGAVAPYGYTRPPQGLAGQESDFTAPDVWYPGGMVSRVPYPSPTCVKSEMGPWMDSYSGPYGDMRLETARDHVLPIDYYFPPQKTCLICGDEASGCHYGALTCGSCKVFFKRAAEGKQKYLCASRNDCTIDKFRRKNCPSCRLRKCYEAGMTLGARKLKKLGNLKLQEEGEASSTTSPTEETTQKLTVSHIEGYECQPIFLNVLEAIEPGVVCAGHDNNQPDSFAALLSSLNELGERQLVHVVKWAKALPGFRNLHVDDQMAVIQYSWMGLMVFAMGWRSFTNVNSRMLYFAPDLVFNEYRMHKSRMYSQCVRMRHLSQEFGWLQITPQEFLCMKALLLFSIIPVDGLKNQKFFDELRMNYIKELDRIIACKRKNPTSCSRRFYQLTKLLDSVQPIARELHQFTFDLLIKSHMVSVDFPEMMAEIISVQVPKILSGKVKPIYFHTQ

Target: Androgen receptor (Homo sapiens, UniProt P10275)
Format: cell-based, LNCaP

Fc1ccc(CN2CCN(c3ccc4nnc(C(F)(F)F)n4n3)CC2)cc1
IC50: 1580 nM
